# Source: publication PMC12301332, “Biased antagonism of a series of bicyclic CXCR2 intracellular allosteric modulators” (Frontiers in Pharmacology, 2025)
# The chains behind the UniProt entries cited, without tags or fusion partners.
# UniProt P25025, whole entry: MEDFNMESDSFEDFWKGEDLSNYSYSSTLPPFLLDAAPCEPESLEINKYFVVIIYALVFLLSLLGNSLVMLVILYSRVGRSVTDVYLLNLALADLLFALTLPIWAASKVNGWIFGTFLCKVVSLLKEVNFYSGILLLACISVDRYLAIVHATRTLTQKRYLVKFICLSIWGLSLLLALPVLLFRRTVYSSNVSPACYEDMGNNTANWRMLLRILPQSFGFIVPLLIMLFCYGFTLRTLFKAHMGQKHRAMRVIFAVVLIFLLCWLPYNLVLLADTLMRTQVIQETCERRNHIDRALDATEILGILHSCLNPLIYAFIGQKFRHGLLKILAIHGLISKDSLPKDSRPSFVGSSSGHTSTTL
# How the values were obtained:
# Type in all cases: cell-based
# CXCR2 [1] = biological target: T1, CXCR2 (Homo sapiens, UniProt P25025); assay: NanoBRET β-arrestin1 recruitment inhibition assay (NanoLux) in HEK293A cells; settings: normalized to Imax of navarixin = 100%, n = 3
# T1 construct: expressed in transfected cells
# Description: Cells were trypsinized and resuspended at 3 × 10^5 cell/mL in the growth medium, whereafter they were incubated for 2 hours at RT. Cells were transfected in suspension using FuGENE® HD Transfection Reagent at a 3:1 reagent to DNA ratio in Opti-MEMTM I Reduced-Serum Medium, with the final DNA concentration of 1 μg/μL. The transfection mixture was incubated for 10 min at RT before adding it to the cell suspension. Transfected cells were seeded at 3.0 × 10^4 cells/well in a white, clear, flat-bottom 96-well plate coated with 100 μg/mL poly-D-lysin ([…], Sigma Aldrich) and incubated for 48 h at 37°C and 5% CO2. HEK293A cells were transiently co-transfected with plasmids encoding β-arrestin1 protein tagged with NLuc (donor) and CXCR2 protein tagged with mNeonGreen (mNG) acceptor in a 1:10 donor to acceptor ratio, as described previously ([Luís et al., 2022]). All subsequent steps are identical to those in “NanoBRET-based G protein activation inhibition assay,” which are described above. Measurements were acquired using a 440- to 480-nm donor emission filter (#0200-6179, Molecular Devices) and a 515- to 575-nm acceptor emission filter (#0200-6203, Molecular Devices) BRET ratios were extracted from ScreenWorks software (Molecular Devices) and represent the ratio between the acceptor emission of […]2 or mNG (G protein or β-arrestin recruitment, respectively) and NLuc donor emission. The basal BRET ratio was defined as the average BRET ratio of the five consecutive readings preceding ligand addition. Changes in BRET values post ligand administration (ΔBRET) were calculated for each well as a percentage difference to the previously defined basal BRET ratio. Average ΔBRET values were baseline corrected by subtracting the average negative control BRET ratio (unstimulated condition). […] AUCs were normalized to the positive control (stimulated condition); whereafter, dose-response curves were fitted to log (inhibitor) vs response (three parameters) in GraphPad 10.2.0 (GraphPad Software). […] Calculation 1: calculation of the BRET signal. • 1. […] NC correctedΔBRET=Δ[…]. • 4. a. Neg AUC of NC correctedΔBRET=Gα activation read out. b. Pos AUC of NC correctedΔBRET=β-arrestin recruitment.
# CXCR2 [2] = biological target: T1, CXCR2; assay: Bias analysis (bias plot, bias index) of β-arrestin1 recruitment inhibition versus Gαi1 activation inhibition, navarixin as reference; settings: all ELR+ chemokines; navarixin as reference antagonist
# Description: For signaling bias calculations, constraints were set to bottom values equal to zero. The calculated top values generated by nonlinear fit log (inhibitor) vs response (three parameters) in GraphPad 10.2.1 were taken as Imax. […] The bias index values were calculated, as is shown in calculation 2. Briefly, log(Imax/IC50) was calculated. […] Finally, the bias index was calculated by subtracting the ∆log (Imax/IC50) of the tested compound from the stated reference pathway from that of the pathway of interest. […] The statistical significance of H1 was evaluated using a one-sample T-test with Benjamini-Hochberg correction applied for multiple comparisons, whereas H2 was assessed using a one-way ANOVA followed by Tukey’s test.
# Bias index=∆LogImax/IC50P1:β−arr1−∆LogImax/IC50P2:Gai1 .
# Bias plots are equimolar comparisons between the two pathways of interest.
# CXCR2 [3] = biological target: T1, CXCR2; assay: NanoBRET-based G protein activation inhibition assay (REGA-SIGN Gαi1 dissociation) in HEK293A.CXCR2 cells; settings: normalized to Imax of navarixin = 100%, n = 3
# Description: Cells were trypsinized and resuspended at 3 × 10^5 cell/mL in the growth medium, whereafter they were incubated for 2 hours at RT. Cells were transfected in suspension using FuGENE® HD Transfection Reagent at a 3:1 reagent to DNA ratio in Opti-MEMTM I Reduced-Serum Medium, with the final DNA concentration of 1 μg/μL. The transfection mixture was incubated for 10 min at RT before adding it to the cell suspension. Transfected cells were seeded at 3.0 × 10^4 cells/well in a white, clear, flat-bottom 96-well plate coated with 100 μg/mL poly-D-lysin ([…], Sigma Aldrich) and incubated for 48 h at 37°C and 5% CO2. […] (2023)]. Following the 48-h incubation period, cells were washed with the assay buffer. Compounds were serially diluted in 1:500 Nano-Glo® Vivazine^TM working solution (#N2581, Promega), and 90 μL of compound/Vivazine mix was added, followed by incubation for 45 min at 37°C and 5% CO2. Plates were transferred to the FLIPR Penta system (Molecular Devices) at 37°C, and all steps onward are automated and performed by the FLIPR Penta system. After a 10-min equilibration period, the baseline BRET signal was determined by five consecutive reads followed by automatic administration of 10 μL of 10× ligand (Table 1) to the cell plate. Changes in the BRET signal was measured for 10 min, with each read spaced by 2.5 s. […] BRET ratios were extracted from ScreenWorks software (Molecular Devices) and represent the ratio between the acceptor emission of […]2 or mNG (G protein or β-arrestin recruitment, respectively) and NLuc donor emission. The basal BRET ratio was defined as the average BRET ratio of the five consecutive readings preceding ligand addition. Changes in BRET values post ligand administration (ΔBRET) were calculated for each well as a percentage difference to the previously defined basal BRET ratio. Average ΔBRET values were baseline corrected by subtracting the average negative control BRET ratio (unstimulated condition). […] AUCs were normalized to the positive control (stimulated condition); whereafter, dose-response curves were fitted to log (inhibitor) vs response (three parameters) in GraphPad 10.2.0 (GraphPad Software). […] Calculation 1: calculation of the BRET signal. • 1. […] NC correctedΔBRET=Δ[…]. • 4. a. Neg AUC of NC correctedΔBRET=Gα activation read out. b. Pos AUC of NC correctedΔBRET=β-arrestin recruitment.
smiles,measurement,setting,value
"CC[C@@H](Nc1c(Nc2cccc(C(=O)N(C)C)c2O)c(=O)c1=O)c1ccc(C)o1 [Navarixin, navarixin, reference compound]",Imax βarr1 (maximum observed inhibitory effect),CXCR2 [1]; CXCL1 at EC80,100%
same,Imax βarr1 (maximum observed inhibitory effect),CXCR2 [1]; CXCL2 at EC80,100%
same,Imax βarr1 (maximum observed inhibitory effect),CXCR2 [1]; CXCL3 at EC80,100%
same,Imax βarr1 (maximum observed inhibitory effect),CXCR2 [1]; CXCL5 at EC80,100%
same,Imax βarr1 (maximum observed inhibitory effect),CXCR2 [1]; CXCL6 at EC80,100%
same,Imax βarr1 (maximum observed inhibitory effect),CXCR2 [1]; CXCL7 at EC80,100%
same,Imax βarr1 (maximum observed inhibitory effect),CXCR2 [1]; CXCL8 at EC80,100%
same,"bias profile (bias plot), β-arrestin1 recruitment inhibition vs Gαi1 activation inhibition",CXCR2 [2],unbiased
same,Imax Gαi1 (maximum observed inhibitory effect),CXCR2 [3]; CXCL1 at EC80,100%
same,Imax Gαi1 (maximum observed inhibitory effect),CXCR2 [3]; CXCL2 at EC80,100%
same,Imax Gαi1 (maximum observed inhibitory effect),CXCR2 [3]; CXCL3 at EC80,100%
same,Imax Gαi1 (maximum observed inhibitory effect),CXCR2 [3]; CXCL5 at EC80,100%
same,Imax Gαi1 (maximum observed inhibitory effect),CXCR2 [3]; CXCL6 at EC80,100%
same,Imax Gαi1 (maximum observed inhibitory effect),CXCR2 [3]; CXCL7 at EC80,100%
same,Imax Gαi1 (maximum observed inhibitory effect),CXCR2 [3]; CXCL8 at EC80,100%
